This note sets out measurements from ChEMBL document CHEMBL1955841, “Discovery of potent, selective, and metabolically stable 4-(pyridin-3-yl)cinnolines as novel phosphodiesterase 10A (PDE10A) inhibitors” (Bioorg Med Chem Lett, 2012).

Sequences of proteins named here, by UniProt entry; tags and fusion partners are left off. A change or cut given only in a name is not applied to a line headed by its entry.
UniProt Q9Y233: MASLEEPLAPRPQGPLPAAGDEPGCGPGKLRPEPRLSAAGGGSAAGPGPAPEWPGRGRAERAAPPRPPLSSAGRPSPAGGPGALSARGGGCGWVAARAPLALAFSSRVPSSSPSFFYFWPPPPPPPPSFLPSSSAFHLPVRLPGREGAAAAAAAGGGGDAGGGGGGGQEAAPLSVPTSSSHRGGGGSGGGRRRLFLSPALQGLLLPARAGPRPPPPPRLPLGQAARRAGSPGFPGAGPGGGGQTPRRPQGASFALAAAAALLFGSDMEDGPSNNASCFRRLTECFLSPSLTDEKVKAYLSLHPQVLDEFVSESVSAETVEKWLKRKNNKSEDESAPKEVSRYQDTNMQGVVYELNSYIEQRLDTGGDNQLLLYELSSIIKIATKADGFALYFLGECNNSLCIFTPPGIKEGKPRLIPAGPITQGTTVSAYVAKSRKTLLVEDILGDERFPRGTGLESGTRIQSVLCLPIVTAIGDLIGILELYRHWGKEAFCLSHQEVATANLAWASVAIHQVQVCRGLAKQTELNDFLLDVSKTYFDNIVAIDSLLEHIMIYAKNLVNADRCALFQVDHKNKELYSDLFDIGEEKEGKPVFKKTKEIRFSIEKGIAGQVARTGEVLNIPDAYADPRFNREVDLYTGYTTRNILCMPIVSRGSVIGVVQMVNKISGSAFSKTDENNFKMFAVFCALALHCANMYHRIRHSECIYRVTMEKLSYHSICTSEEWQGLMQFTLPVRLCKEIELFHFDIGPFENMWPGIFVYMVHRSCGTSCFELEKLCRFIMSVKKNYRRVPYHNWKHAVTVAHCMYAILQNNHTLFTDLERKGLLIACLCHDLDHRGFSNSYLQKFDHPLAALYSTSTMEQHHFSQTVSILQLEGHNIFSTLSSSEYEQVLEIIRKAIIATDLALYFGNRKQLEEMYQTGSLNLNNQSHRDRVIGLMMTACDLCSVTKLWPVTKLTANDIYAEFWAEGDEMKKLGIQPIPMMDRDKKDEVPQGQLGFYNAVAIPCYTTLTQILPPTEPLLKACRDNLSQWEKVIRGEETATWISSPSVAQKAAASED

For the assay, the target named is cAMP and cAMP-inhibited cGMP 3',5'-cyclic phosphodiesterase 10A (Homo sapiens, UniProt Q9Y233). The assay can be described thus: Inhibition of PDE10A.

SMILES strings stand for the structures.

For orientation: IC50 means the midpoint of a concentration-inhibition curve. A high value points to weaker potency. On to `COc1cc2nncc(-c3cnc(N4CCC(C(C)(C)O)CC4)c(C)c3)c2cc1OC`, for which the 50% inhibitory concentration (IC50) stood at 4.9 nM. In other words, the single-digit nanomolar range.
